Data published in US8049006B2, “7-membered ring compound and method of production and pharmaceutical application thereof” (Daiichi Sankyo Company, Limited, priority 2006, dated 2011).

Tested on: C3H/HeN mice
Settings: 10 mg/kg orally once a day, 24 hours after DNFB application at fifth week, female C3H/HeN mice

CC[C@@H](NC(=O)N1CC(=O)NC[C@H](Cc2cc(Cl)ccc2OC)C1=O)c1ccc(C(=O)O)c(N)c1 [Compound 150, 2-amino-4-[(1R)-1-({[(6S)-6-(5-chloro-2-methoxybenzyl)-3,7-dioxo-1,4-diazepan-1-yl]carbonyl}amino)propyl]benzoic Acid]
inhibition rate of the skin reaction (listed as compound 150): 29.9%

CC[C@@H](NC(=O)N1CC(=O)NC[C@@H](Cc2cc(Cl)ccc2OC)C1=O)c1ccc(C(=O)O)c(N)c1 [2-amino-4-[(1R)-1-({[(6R)-6-(5-chloro-2-methoxybenzyl)-3,7-dioxo-1,4-diazepan-1-yl]carbonyl}amino)propyl]benzoic Acid]
inhibition rate of the skin reaction: 20.0%

CC[C@@H](NC(=O)N1CC(=O)NC[C@H](Cc2cc(Cl)ccc2OC)C1=O)c1ccc(C(=O)O)c(N)c1 [Compound 179B, 2-amino-4-[(1R)-1-({[(6S)-6-(5-chloro-2-methoxybenzyl)-3,7-dioxo-1,4-diazepan-1-yl]carbonyl}amino)propyl]benzoic Acid Monoacetic Acid Solvate]
inhibition rate of the skin reaction (listed as compound 179B): 32.8%

Where two headings read alike, the source gives them in different places.
